This note sets out measurements from patent US8361445B2, “Formulations for treating and/or preventing black-line stains” (priority 2010, dated 2013).

The conditions of this data set: two patients; solution of 250 mg tetracycline capsules in 100 ml water, topical oral, twice a day for a week.

Turning to `CN(C)[C@@H]1C(O)=C(C(N)=O)C(=O)[C@@]2(O)C(O)=C3C(=O)c4c(O)cccc4[C@@](C)(O)[C@H]3C[C@@H]12` [tetracycline], the adverse effects entry is “neither one of the patients experienced any adverse effects”.
